Assay results: publication PMC4479705 (mBio, 2015)

Molecular target: recombinant factor H binding protein (FHbp) ID 1 (Neisseria meningitidis serogroup B …, UniProt Q9JXV4)
Assay: SPR

B1: control chimeric human-mouse anti-FHbp Fab JAR 5 (Fab, V domains shown)
VH: QVQMQQPGAELVKPGASVKLSCKASGYTFISYWMHWVKQRPGRGLEWIGRIAPDTGIIYYNEKFKNKATLTVDTPSSTAYMQLNSLTSEDSAVYYCARYLKYDGSTYRFDYWGQGTTLTVSS
VL: DIVMTQAAPSVPVTPGESVSISCRSSKSLLHSNGNTYLFWFLQRPGQSPQLLIYRMSNLASGVPDRFSGSGSGTSFTLRISRVEAEDVGVYYCMQHLEYPYTFGGGTKLEIK
  Kd: 0.054 nM
  koff: 0.0005 s⁻¹
  kon: 8.84e+06 M⁻¹ s⁻¹
